Ab-14 heavy chain CDR variants: yeast mating affinities

Target: peptide PDVDLGDISGINAS, taken from heptad repeat 2 (HR2) of SARS-CoV-2 spike.

Parent scFv Ab-14: VH joined to VL by the linker GGGGSGGGGSGGGGS. Changes lie in the heavy chain CDRs alone.
VH: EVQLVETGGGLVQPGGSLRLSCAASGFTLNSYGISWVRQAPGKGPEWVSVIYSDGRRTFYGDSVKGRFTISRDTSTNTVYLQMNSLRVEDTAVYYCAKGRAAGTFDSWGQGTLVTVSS
VL: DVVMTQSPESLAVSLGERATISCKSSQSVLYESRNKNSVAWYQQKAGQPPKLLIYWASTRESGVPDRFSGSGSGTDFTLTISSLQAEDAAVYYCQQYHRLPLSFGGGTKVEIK

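The library (AAYL49) carries one to three amino acid substitutions per variant, with no insertions or deletions. Affinity was read by AlphaSeq, a pooled yeast mating assay with surface-displayed partners. Mating (16 h, 30 °C) was followed by selection of diploids and sequencing of their barcodes. Each replicate has its own calibration line, from reference interactions of the BCL2 family. The assay was run in three technical replicates.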

Positions count from residue 1 of the parent VH; S31E puts E in place of S.
All variants listed here change G103 of the VH, counted from its first residue.
Scale: log10 of Kd in nM, estimated from mating counts; low values are strong binders.
A mean of the replicates is given; it leaves out those without a signal.
"nd" means that the variant was in the library but no mating with the target was seen in that replicate; the authors take this as a sign of poor binding, and no number exists.
Entries are sorted by rising average, undetected variants last.
In this assay the parent's reference entry averaged 0.65; its copy inside this library read 4.11 (one replicate of three).
Nonspecific signal, from three strains lacking the peptide, appeared in 15% of pairings of library AAYL49, centred on 4.06 (5% of these signals below 2.83); values are not corrected for it. The control count says in how many pairings with the empty strains this scFv gave a signal.

- S31E+G103V+S107Q -> -0.74, -0.31, -0.43 (mean -0.49; controls 1 of 9)
- F27S+G103C+D106Q -> 0.65, 0.87, 0.79 (mean 0.77; controls 2 of 9)
- T28A+G103A -> 1.92, 1.66, 1.73 (mean 1.77; controls 3 of 9)
- F27P+N30E+G103V -> 1.97, 1.72, 2.34 (mean 2.01; controls 0 of 9)
- R57G+G103S+D106Q -> 3.15, nd, 3.03 (mean 3.09; controls 1 of 9)
- T58N+G103S+F105I -> 3.47, 2.73, nd (mean 3.10; controls 0 of 9)
- Y32A+A102Y+G103R -> 3.22, 2.39, 3.77 (mean 3.13; controls 6 of 9)
- L29C+I34Q+G103Y -> 3.47, nd, nd (controls 0 of 9)
- T28K+V64D+G103I -> nd, 3.61, nd (controls 0 of 9)
- F59W+G103N+S107I -> 4.00, 3.01, 3.98 (mean 3.66; controls 5 of 9)
- Y32M+I34F+G103S -> nd, nd, 3.74 (controls 1 of 9)
- G33A+R57P+G103K -> nd, 3.40, 4.88 (mean 4.14; controls 3 of 9)
- G26R+L29D+G103Y -> 4.40, nd, nd (controls 3 of 9)
- G33I+G103R+T104L -> nd, 4.81, nd (controls 3 of 9)
- G61N+K65V+G103T -> 5.23, 5.07, nd (mean 5.15; controls 5 of 9)
- T58K+G61N+G103D -> nd, 5.42, nd (controls 0 of 9)
- D54S+A102G+G103M -> 5.81, nd, nd (controls 2 of 9)
- R57F+D62R+G103T -> nd, nd, nd (controls 0 of 9)
- S53L+G103D+S107M -> nd, nd, nd (controls 2 of 9)
- S35R+S63G+G103N -> nd, nd, nd (controls 0 of 9)
- F27L+R57K+G103W -> nd, nd, nd (controls 0 of 9)
- G26I+G103I -> nd, nd, nd (controls 1 of 9)
- S35R+G103I -> nd, nd, nd (controls 0 of 9)
- F27V+Y60D+G103P -> nd, nd, nd (controls 1 of 9)
- S35V+G55E+G103W -> nd, nd, nd (controls 0 of 9)
- G55F+F59W+G103T -> nd, nd, nd (controls 3 of 9)
- R56A+G103V+S107Q -> nd, nd, nd (controls 0 of 9)
- Y32R+G103K+S107E -> nd, nd, nd (controls 0 of 9)
- S53R+G103V+S107G -> nd, nd, nd (controls 0 of 9)
- F27L+G33S+G103M -> nd, nd, nd (controls 1 of 9)
- Y52R+G103T+S107A -> nd, nd, nd (controls 0 of 9)
- L29P+I51Y+G103Q -> nd, nd, nd (controls 2 of 9)
- G26L+G103A -> nd, nd, nd (controls 0 of 9)
- G33S+R56Y+G103F -> nd, nd, nd (controls 2 of 9)
- G26D+G103T -> nd, nd, nd (controls 0 of 9)
- L29W+V50Q+G103W -> nd, nd, nd (controls 1 of 9)

A selection of 4 entries from above:

* G33I+G103R+T104L: nd, 4.81, nd (controls 3 of 9)
* Y32A+A102Y+G103R: 3.22, 2.39, 3.77 (mean 3.13; controls 6 of 9)
* F59W+G103N+S107I: 4.00, 3.01, 3.98 (mean 3.66; controls 5 of 9)
* R56A+G103V+S107Q: nd, nd, nd (controls 0 of 9)

Reference: Engelhart et al. 2022, doi:10.1038/s41597-022-01779-4. File: FLAb, binding data.